System: A498 ccRCC xenografts
Assay: A498 ccRCC subcutaneous xenograft study
Details: after the first week of treatment

Which eye observations does the source give for `CNC(=O)c1cccc(NC(=O)N2CCC(Oc3ccccc3Cl)CC2)c1` [A939572] here?
Its eye observations is “increased blinking, and slight mucosal discharge from the eyes”.

Source: US10160972B2, “Methods and materials for treating cancer” (Mayo Foundation for Medical Education and Research, priority 2012, dated 2018)
